Experimental data: PubChem BioAssay AID823 (SRMLSC, 2007)
This is a selection; strong and weak results do not stand in their true shares. Records with an inconclusive call do not appear. Active and inactive are the calls of the source.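 Rule for the calls: active = cell viability at or below a set limit in both duplicate runs, the limit being the all-compound median minus 4 SD (cut at about 23% in these data, passing the limit was not always enough); inconclusive = no clear call, values can overlap the other calls; inactive = the rest.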

Assay: growth suppression of beta-catenin knockout HCT116, pilot screen, human colon tumor cells (AID 823);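 note: 0% = wells killed by 20 µM Hyamine and 100% = untreated DMSO cell wells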
Settings: CellTiter-Glo, 60 h, at 10 µM, active compounds read low

SMILES | viability
COC(=O)c1cc2c(s1)N=C(c1ccccc1)N(C)P2(=O)N1CCOCC1 (stereo unspecified) | inactive: 93.1%
